## CycPeptMPDB entries from one study

Data: CycPeptMPDB; original report Townsend et al. 2020, doi:10.26434/chemrxiv.13335941.v1.

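Lipid, pH, incubation time, direction and concentration are not recorded in the data file. The list need not hold all peptides of the study. Entries at the database's floor value (log10 P of -10) are not listed.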

PAMPA is the parallel artificial membrane permeability assay, which has no cells and reads passive diffusion.
P is given in units of 10^-6 cm/s (from log10 values with two decimals); larger means faster passage.

Listed for CC(C)C[C@@H]1C(=O)N[C@@H](Cc2ccccc2)C(=O)N(C)[C@H](C)C(=O)N(C)[C@@H](CC(C)C)C(=O)N[C@@H](Cc2ccccc2)CC(=O)N2CCC[C@@H]2C(=O)N1C: PAMPA 4 × 10^-6 cm/s.
Listed for CC(C)C[C@@H]1NC(=O)[C@@H]2CCCN2C(=O)[C@H](CC(C)C)N(C)C(=O)[C@H](CC(C)C)N(C)C(=O)[C@@H](C)NC(=O)[C@H]2CCCN2C(=O)[C@H](Cc2ccccc2)NC1=O: PAMPA 2.5 × 10^-6 cm/s.
Listed for CC(C)C[C@@H]1C(=O)N[C@@H](Cc2ccccc2)CC(=O)N2CCC[C@@H]2C(=O)N[C@H](CC(C)C)C(=O)N[C@@H](Cc2ccccc2)C(=O)N(C)[C@@H](C)C(=O)N1C: PAMPA 1.8 × 10^-6 cm/s.
Listed for CCCN1CC(=O)N(C)[C@@H](CC(C)C)C(=O)N[C@H](CC(C)C)C(=O)N2CCC[C@@H]2C(=O)N(C)[C@@H](CC(C)C)C(=O)N[C@@H](Cc2ccccc2)C1=O: PAMPA 15 × 10^-6 cm/s.
Listed for CC(C)C[C@@H]1C(=O)N[C@H](CC(C)C)C(=O)N2CCC[C@@H]2C(=O)N(C)[C@@H](CC(C)C)C(=O)N[C@@H](Cc2ccccc2)C(=O)N2CCC[C@H]2C(=O)N(C)[C@H](C)C(=O)N1C: PAMPA 7.8 × 10^-6 cm/s.
Listed for CC(C)C[C@@H]1C(=O)N[C@@H](Cc2ccccc2)C(=O)N2CCC[C@@H]2C(=O)N(C)[C@@H](C)C(=O)N(C)[C@@H](CC(C)C)C(=O)N(Cc2ccccc2)CC(=O)N2CCC[C@H]2C(=O)N1C: PAMPA 1.4 × 10^-6 cm/s.
Listed for CC(C)C[C@@H]1NC(=O)[C@@H]2CCCN2C(=O)C[C@H](Cc2ccccc2)NC(=O)[C@@H](CC(C)C)NC(=O)C[C@H](Cc2ccccc2)NC(=O)[C@H](Cc2ccccc2)NC1=O: PAMPA 2 × 10^-6 cm/s.
Listed for CC(C)C[C@@H]1C(=O)N2CCC[C@H]2C(=O)N[C@H](CC(C)C)C(=O)N[C@@H](Cc2ccccc2)C(=O)N(C)[C@@H](C)C(=O)N[C@H](CC(C)C)C(=O)N1C: PAMPA 21 × 10^-6 cm/s.
Listed for CC(C)C[C@@H]1NC(=O)C[C@H](Cc2ccccc2)NC(=O)[C@@H]2CCCN2C(=O)[C@H](Cc2ccccc2)NC(=O)[C@H](CC(C)C)N(C)C(=O)[C@H]2CCCN2C(=O)[C@H](CC(C)C)N(C)C1=O: PAMPA 4.7 × 10^-6 cm/s.
Listed for CC(C)C[C@@H]1NC(=O)[C@@H](CC(C)C)N(C)C(=O)[C@@H](C)NC(=O)[C@H](Cc2ccccc2)NC(=O)[C@@H](CC(C)C)NC(=O)[C@H]2CCCN2C1=O: PAMPA 5.8 × 10^-6 cm/s.
Listed for CC(C)C[C@@H]1NC(=O)[C@H](C)NC(=O)[C@H](Cc2ccccc2)NC(=O)CN(Cc2ccccc2)C(=O)[C@H]2CCCN2C(=O)[C@@H](CC(C)C)NC1=O: PAMPA 0.48 × 10^-6 cm/s.
Listed for CCCN1CC(=O)N[C@@H](CC(C)C)C(=O)N(C)[C@@H](CC(C)C)C(=O)N2CCC[C@H]2C(=O)N(C)[C@H](CC(C)C)C(=O)N[C@@H](Cc2ccccc2)C(=O)N2CCC[C@H]2C1=O: PAMPA 1.8 × 10^-6 cm/s.
Listed for CCCN1CC(=O)N(C)[C@@H](CC(C)C)C(=O)N[C@H](CC(C)C)C(=O)N2CCC[C@H]2C(=O)N[C@H](CC(C)C)C(=O)N[C@@H](Cc2ccccc2)C(=O)N2CCC[C@H]2C1=O: PAMPA 1.3 × 10^-6 cm/s.
Listed for CC(C)C[C@@H]1NC(=O)[C@@H]2CCCN2C(=O)[C@H](CC(C)C)N(C)C(=O)[C@@H](CC(C)C)NC(=O)C[C@H](Cc2ccccc2)NC(=O)[C@H]2CCCN2C(=O)[C@H](Cc2ccccc2)NC1=O: PAMPA 2.9 × 10^-6 cm/s.
Listed for CC(C)C[C@@H]1NC(=O)[C@@H](C)N(C)C(=O)[C@H]2CCCN2C(=O)[C@H](Cc2ccccc2)NC(=O)CN(Cc2ccccc2)C(=O)[C@@H]2CCCN2C(=O)[C@H](CC(C)C)NC1=O: PAMPA 3.9 × 10^-6 cm/s.
Listed for CC(C)C[C@@H]1C(=O)N(Cc2ccccc2)CC(=O)N2CCC[C@@H]2C(=O)N[C@H](CC(C)C)C(=O)N[C@@H](Cc2ccccc2)C(=O)N2CCC[C@@H]2C(=O)N[C@@H](C)C(=O)N1C: PAMPA 1.4 × 10^-6 cm/s.
Listed for CC(C)C[C@H]1C(=O)N(Cc2ccccc2)CC(=O)N2CCC[C@@H]2C(=O)N(C)[C@@H](CC(C)C)C(=O)N[C@@H](Cc2ccccc2)C(=O)N2CCC[C@H]2C(=O)N(C)[C@H](C)C(=O)N1C: PAMPA 5.4 × 10^-6 cm/s.
Listed for CC(C)C[C@@H]1C(=O)N[C@@H](Cc2ccccc2)C(=O)N[C@H](C)C(=O)N(C)[C@@H](CC(C)C)C(=O)N[C@H](CC(C)C)C(=O)N2CCC[C@@H]2C(=O)N1C: PAMPA 2.2 × 10^-6 cm/s.
Listed for CC(C)C[C@@H]1NC(=O)[C@H](C)N(C)C(=O)[C@@H]2CCCN2C(=O)[C@H](Cc2ccccc2)NC(=O)[C@@H](CC(C)C)N(C)C(=O)[C@@H]2CCCN2C(=O)[C@H](CC(C)C)N(C)C1=O: PAMPA 0.6 × 10^-6 cm/s.
Listed for CC(C)C[C@H]1NC(=O)C[C@H](Cc2ccccc2)NC(=O)[C@H]2CCCN2C(=O)[C@H](Cc2ccccc2)NC(=O)[C@@H](CC(C)C)NC(=O)[C@@H]2CCCN2C(=O)C[C@H](Cc2ccccc2)NC1=O: PAMPA 1.5 × 10^-6 cm/s.
Listed for CC(C)C[C@H]1NC(=O)[C@@H](C)N(C)C(=O)[C@H]2CCCN2C(=O)[C@H](Cc2ccccc2)NC(=O)[C@@H](CC(C)C)NC(=O)[C@@H]2CCCN2C(=O)C[C@H](Cc2ccccc2)NC1=O: PAMPA 0.28 × 10^-6 cm/s.

The 3 lowest values of PAMPA among the entries above:

For CC(C)C[C@H]1NC(=O)[C@@H](C)N(C)C(=O)[C@H]2CCCN2C(=O)[C@H](Cc2ccccc2)NC(=O)[C@@H](CC(C)C)NC(=O)[C@@H]2CCCN2C(=O)C[C@H](Cc2ccccc2)NC1=O the data give PAMPA 0.28 × 10^-6 cm/s.
For CC(C)C[C@@H]1NC(=O)[C@H](C)NC(=O)[C@H](Cc2ccccc2)NC(=O)CN(Cc2ccccc2)C(=O)[C@H]2CCCN2C(=O)[C@@H](CC(C)C)NC1=O the data give PAMPA 0.48 × 10^-6 cm/s.
For CC(C)C[C@@H]1NC(=O)[C@H](C)N(C)C(=O)[C@@H]2CCCN2C(=O)[C@H](Cc2ccccc2)NC(=O)[C@@H](CC(C)C)N(C)C(=O)[C@@H]2CCCN2C(=O)[C@H](CC(C)C)N(C)C1=O the data give PAMPA 0.6 × 10^-6 cm/s.